The nature of this data set: clinical. Conditions: human, plasma, po, 100 mg.

By Cmax is commonly meant the maximum level reached in the sampled fluid or tissue. Turning to `N#C[C@@H]1CCCN1C(=O)CNC12CC3CC(CC(O)(C3)C1)C2` [vildagliptin, (S)-1-[(3-hydroxy-1-adamantyl)amino]acetyl-2-cyano-pyrrolidine], the peak concentration (Cmax) is 505 ± 120 ng/mL.
